{"sequences": {"note": "Amino acid sequences for entries named in this document (tags omitted).", "UniProt P50406, whole entry": "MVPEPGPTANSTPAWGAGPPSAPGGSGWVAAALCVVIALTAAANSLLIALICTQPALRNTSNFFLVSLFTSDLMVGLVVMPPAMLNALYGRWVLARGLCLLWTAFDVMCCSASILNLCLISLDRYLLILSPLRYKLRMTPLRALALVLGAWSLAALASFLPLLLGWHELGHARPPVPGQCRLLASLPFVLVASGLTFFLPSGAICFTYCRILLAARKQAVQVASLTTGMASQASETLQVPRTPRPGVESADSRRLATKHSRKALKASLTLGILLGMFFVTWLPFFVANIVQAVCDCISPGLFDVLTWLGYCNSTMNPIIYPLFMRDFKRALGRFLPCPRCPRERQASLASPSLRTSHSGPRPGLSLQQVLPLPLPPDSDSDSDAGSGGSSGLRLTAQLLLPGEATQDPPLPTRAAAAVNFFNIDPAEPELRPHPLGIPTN"}, "source": "patent US8765779B2", "about": "“Tricyclic derivatives and their pharmaceutical use and compositions” (Cephalon, Inc., priority 2009, dated 2014)", "data": [{"target": "human 5-HT6 receptor (Homo sapiens, UniProt P50406)", "assay": "Human 5-HT6 Receptor Binding Assay ([3H]LSD displacement, scintillation beads)", "details": "read-out: h5-HT6 (Ki); membranes of CHO-K1 cells with recombinant human 5-HT6, 4 nM [3H]LSD; Table 1, class symbols; tested form: HCl", "units": {"Ki": "µM"}, "values": [{"smiles": "O=S(=O)(c1cccc(C(F)(F)F)c1)c1ccc2c3c([nH]c2c1)C1(CCCOC1)NCC3", "note": "(single isomer, unassigned)", "Ki": "< 0.5"}, {"smiles": "O=S(=O)(c1ccccc1)c1ccc2c3c([nH]c2c1)C1(CCCOC1)NCC3", "note": "(single isomer, unassigned)", "Ki": "< 0.5"}, {"smiles": "O=S(=O)(c1cc(F)cc(F)c1)c1ccc2c3c([nH]c2c1)C1(CCCOC1)NCC3", "note": "(single isomer, unassigned)", "Ki": "< 0.5"}, {"smiles": "O=S(=O)(c1cccc(OC(F)(F)F)c1)c1ccc2c3c([nH]c2c1)C1(CCCOC1)NCC3", "note": "(single isomer, unassigned)", "Ki": "< 0.5"}]}]}
